From PMC3674230 (Chemical communications (Cambridge, England), 2012)

Target: hCAII (Homo sapiens, UniProt P00918)
Experiment: standard esterase activity assay against hCAII
Assay type: biochemical

IC50: 8 ± 2 mM
Structure (SMILES): O=C(O)c1ccc(O)cc1 [Compound 3, 4-Hydroxybenzoic acid]
